These results are taken from ChEMBL document CHEMBL1131540, “Modifications of the 4,4'-residues and SAR studies of Biphalin, a highly potent opioid receptor active peptide” (Bioorg Med Chem Lett, 1998).

Amino acid sequences for entries named in this document (tags omitted).
UniProt P97266, whole entry: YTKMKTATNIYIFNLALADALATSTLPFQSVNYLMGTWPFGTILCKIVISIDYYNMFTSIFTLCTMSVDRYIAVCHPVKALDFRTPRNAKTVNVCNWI

This test has as its target Mu-type opioid receptor (Cavia porcellus, UniProt P97266). Kind of test: Compound was tested for binding affinity towards mu opioid receptor in guinea pig brain homogenates using [3H]CTOP as radioligand. Format: tissue-based.

As for `C[C@@H](NC(=O)[C@@H](N)Cc1ccc(O)cc1)C(=O)NCC(=O)N[C@@H](Cc1ccccc1)C(=O)NNC(=O)[C@H](Cc1ccccc1)NC(=O)CNC(=O)[C@@H](C)NC(=O)[C@@H](N)Cc1ccc(O)cc1`, the Ki worked out at 2.8 nM.

As usually defined, the Ki is a dissociation constant, usually derived from enzyme kinetics or from competition with a known ligand. Lower therefore signals a stronger hold on the target.
